Source: PubChem BioAssay (NCI)
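Dose response: 5 concentrations. Exposure: 48 h. Format: 96-well plates. Endpoint: linear interpolation; highest concentration if not reached. Abbreviation: GI50, concentration required for 50% inhibition of growth. TGI: total growth inhibition.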

Legend:
Assay in all cases: NCI anticancer screen, dose series, 48 h
SF-268 CNS = test system: SF-268 CNS
UACC-62 melanoma = test system: UACC-62 melanoma
EKVX NSCLC = test system: EKVX NSCLC
CCRF-CEM leukemia = test system: CCRF-CEM leukemia
COLO 205 colon = test system: COLO 205 colon
TK-10 renal = test system: TK-10 renal
HT29 colon = test system: HT29 colon
MDA-MB-231 breast = test system: MDA-MB-231 breast
PC-3 prostate = test system: PC-3 prostate
NCI/ADR-RES ovarian = test system: NCI/ADR-RES ovarian
DU-145 prostate = test system: DU-145 prostate
OVCAR-3 ovarian = test system: OVCAR-3 ovarian
NCI-H226 lung = test system: NCI-H226 lung
SR leukemia = test system: SR leukemia
MALME-3M melanoma = test system: MALME-3M melanoma
SN12C renal = test system: SN12C renal
HCT-116 colon = test system: HCT-116 colon
HCC-2998 colon = test system: HCC-2998 colon
MDA-MB-435 = test system: MDA-MB-435
SK-MEL-2 melanoma = test system: SK-MEL-2 melanoma
U251 CNS = test system: U251 CNS
HOP-92 NSCLC = test system: HOP-92 NSCLC
ACHN renal = test system: ACHN renal
SK-MEL-5 melanoma = test system: SK-MEL-5 melanoma
LOX IMVI melanoma = test system: LOX IMVI melanoma
HCT-15 colon = test system: HCT-15 colon
M14 melanoma = test system: M14 melanoma
UACC-257 melanoma = test system: UACC-257 melanoma
NCI-H23 lung = test system: NCI-H23 lung
SNB-75 CNS = test system: SNB-75 CNS
BT-549 breast = test system: BT-549 breast
NCI-H460 lung = test system: NCI-H460 lung
A498 renal = test system: A498 renal
HL-60(TB) leukemia = test system: HL-60(TB) leukemia
UO-31 renal = test system: UO-31 renal
HOP-62 NSCLC = test system: HOP-62 NSCLC
OVCAR-4 ovarian = test system: OVCAR-4 ovarian
MDA-N = test system: MDA-N
T-47D breast = test system: T-47D breast
786-0 renal = test system: 786-0 renal
SNB-19 CNS = test system: SNB-19 CNS
RPMI-8226 leukemia = test system: RPMI-8226 leukemia
K-562 leukemia = test system: K-562 leukemia
SK-MEL-28 melanoma = test system: SK-MEL-28 melanoma
KM12 colon = test system: KM12 colon
OVCAR-5 ovarian = test system: OVCAR-5 ovarian
NCI-H322M lung = test system: NCI-H322M lung
RXF 393 renal = test system: RXF 393 renal
HS 578T breast = test system: HS 578T breast
SF-295 CNS = test system: SF-295 CNS
MOLT-4 leukemia = test system: MOLT-4 leukemia
IGROV1 ovarian = test system: IGROV1 ovarian
NCI-H522 lung = test system: NCI-H522 lung
CAKI-1 renal = test system: CAKI-1 renal
OVCAR-8 ovarian = test system: OVCAR-8 ovarian
A549 NSCLC = test system: A549 NSCLC
SK-OV-3 ovarian = test system: SK-OV-3 ovarian
SW-620 colon = test system: SW-620 colon

SMILES: CC(=O)OC1C(=O)OCC23CCC4(C)OC4C2OC2CC(OC(=O)/C=C/C=C/C(=O)OCCC1C)C3(C)C21CO1 (stereo unspecified)
- GI50 (SF-268 CNS): 38.3 nM
- TGI (SF-268 CNS): 168 nM
- GI50 (UACC-62 melanoma): 24.3 nM
- TGI (UACC-62 melanoma): 93.6 nM
- GI50 (EKVX NSCLC): 376 nM
- TGI (EKVX NSCLC): 4.28 µM
- GI50 (CCRF-CEM leukemia): 1.45 nM
- TGI (CCRF-CEM leukemia): 69.7 nM
- GI50 (COLO 205 colon): 17.6 nM
- TGI (COLO 205 colon): 77.2 nM
- GI50 (TK-10 renal): 8.42 nM
- TGI (TK-10 renal): 58.4 nM
- GI50 (HT29 colon): 11 nM
- TGI (HT29 colon): 55.4 nM
- GI50 (MDA-MB-231 breast): 132 nM
- TGI (MDA-MB-231 breast): 590 nM
- GI50 (PC-3 prostate): 13.1 nM
- TGI (PC-3 prostate): 60.4 nM
- GI50 (NCI/ADR-RES ovarian): 70.8 nM
- TGI (NCI/ADR-RES ovarian): 1140 nM
- GI50 (DU-145 prostate): 82.5 nM
- TGI (DU-145 prostate): 269 nM
- GI50 (OVCAR-3 ovarian): 24.9 nM
- TGI (OVCAR-3 ovarian): 136 nM
- GI50 (NCI-H226 lung): 7.11 nM
- TGI (NCI-H226 lung): 22.7 nM
- GI50 (SR leukemia): 12.5 nM
- TGI (SR leukemia): 272 nM
- GI50 (MALME-3M melanoma): 9.96 nM
- TGI (MALME-3M melanoma): 40.8 nM
- GI50 (SN12C renal): 43 nM
- TGI (SN12C renal): 310 nM
- GI50 (HCT-116 colon): 1.48 nM
- TGI (HCT-116 colon): 4.27 nM
- GI50 (HCC-2998 colon): 5.24 nM
- TGI (HCC-2998 colon): 20 nM
- GI50 (MDA-MB-435): 16 nM
- TGI (MDA-MB-435): 51.1 nM
- GI50 (SK-MEL-2 melanoma): 19.6 nM
- TGI (SK-MEL-2 melanoma): 101 nM
- GI50 (U251 CNS): 3.88 nM
- TGI (U251 CNS): 140 nM
- GI50 (HOP-92 NSCLC): 10.3 nM
- TGI (HOP-92 NSCLC): 57.3 nM
- GI50 (ACHN renal): 6.44 nM
- TGI (ACHN renal): 219 nM
- GI50 (SK-MEL-5 melanoma): 1.25 nM
- TGI (SK-MEL-5 melanoma): 2.74 nM
- GI50 (LOX IMVI melanoma): 1.18 nM
- TGI (LOX IMVI melanoma): 1.65 nM
- GI50 (HCT-15 colon): 3.88 nM
- TGI (HCT-15 colon): 59.4 nM
- GI50 (M14 melanoma): 4.56 nM
- TGI (M14 melanoma): 12 nM
- GI50 (UACC-257 melanoma): 23.1 nM
- TGI (UACC-257 melanoma): 177 nM
- GI50 (NCI-H23 lung): 25.8 nM
- TGI (NCI-H23 lung): 88.8 nM
- GI50 (SNB-75 CNS): 2.15 nM
- TGI (SNB-75 CNS): 6.87 nM
- GI50 (BT-549 breast): 5.64 nM
- TGI (BT-549 breast): 16.5 nM
- GI50 (NCI-H460 lung): 3.19 nM
- TGI (NCI-H460 lung): 16.1 nM
- GI50 (A498 renal): 7.14 nM
- TGI (A498 renal): 18.1 nM
- GI50 (HL-60(TB) leukemia): 1.33 nM
- TGI (HL-60(TB) leukemia): 10.7 nM
- GI50 (UO-31 renal): 10.7 nM
- TGI (UO-31 renal): 43.6 nM
- GI50 (HOP-62 NSCLC): 8.46 nM
- TGI (HOP-62 NSCLC): 96.6 nM
- GI50 (OVCAR-4 ovarian): 37.1 nM
- TGI (OVCAR-4 ovarian): 173 nM
- GI50 (MDA-N): 9.39 nM
- TGI (MDA-N): 57.6 nM
- GI50 (T-47D breast): 5.19 nM
- TGI (T-47D breast): 26.8 nM
- GI50 (786-0 renal): 8.11 nM
- TGI (786-0 renal): 56 nM
- GI50 (SNB-19 CNS): 4.22 nM
- TGI (SNB-19 CNS): 32.2 nM
- GI50 (RPMI-8226 leukemia): 1.1 nM
- TGI (RPMI-8226 leukemia): 2.32 nM
- GI50 (K-562 leukemia): 5.02 nM
- TGI (K-562 leukemia): 789 nM
- GI50 (SK-MEL-28 melanoma): 6.11 nM
- TGI (SK-MEL-28 melanoma): 25 nM
- GI50 (KM12 colon): 20 nM
- TGI (KM12 colon): 105 nM
- GI50 (OVCAR-5 ovarian): 54 nM
- TGI (OVCAR-5 ovarian): 415 nM
- GI50 (NCI-H322M lung): 186 nM
- TGI (NCI-H322M lung): 1810 nM
- GI50 (RXF 393 renal): 14.6 nM
- TGI (RXF 393 renal): 68.6 nM
- GI50 (HS 578T breast): 24.7 nM
- TGI (HS 578T breast): 65.6 nM
- GI50 (SF-295 CNS): 15.4 nM
- TGI (SF-295 CNS): 73.7 nM
- GI50 (MOLT-4 leukemia): 5.6 nM
- TGI (MOLT-4 leukemia): 23.9 nM
- GI50 (IGROV1 ovarian): 6.17 nM
- TGI (IGROV1 ovarian): 44.8 nM
- GI50 (NCI-H522 lung): 1.5 nM
- TGI (NCI-H522 lung): 4.7 nM
- GI50 (CAKI-1 renal): 26 nM
- TGI (CAKI-1 renal): 152 nM
- GI50 (OVCAR-8 ovarian): 4.67 nM
- TGI (OVCAR-8 ovarian): 68 nM
- GI50 (A549 NSCLC): 7.56 nM
- TGI (A549 NSCLC): 68.9 nM
- GI50 (SK-OV-3 ovarian): 2.05 nM
- TGI (SK-OV-3 ovarian): 22.1 nM
- GI50 (SW-620 colon): 10.5 nM
- TGI (SW-620 colon): 70.5 nM
